This note sets out measurements from PubChem BioAssay AID602234 (The Scripps Research Institute Molecular Screening Center, 2012).

A short description of the experiment: SRC3 coactivator transcriptional activity inhibitors, dose response, counter-screen for SRC1 inhibitor project, cell-based, luminescence (AID 602234).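 Also: HEK293 cells co-transfected with pGL4.31 reporter and pBIND-SRC3 fusion vector; potency for inhibition of reporter luminescence with Gossypol as full inhibition.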 The settings on record: transfected HEK293 cells, counter-screen luciferase reporter. Background: A counterscreen serves to expose hits that act by an unwanted route or on another target.

Activity calls are given as the source filed them. No rule for the calls is given here.

One may read the IC50 as the midpoint of a concentration-inhibition curve. With `O=C(N/N=C/c1cc(Br)ccc1O)C(c1ccncc1)N1CCOCC1` (stereo unspecified), the IC50 was inactive: > 12 µM.
